For the assay, the system named is 3H-5-HT uptake into whole rat brain synaptosomes. In words: Inhibition of 3H-5-HT uptake into rat brain synaptosomes. The following applies: 3H-5-HT accumulation into whole rat brain synaptosomes, in vitro; read-out: Inhibition of serotonin reuptake IC50. The format is biochemical. The method, then: Inhibition of ^3H-5-HT Uptake Into Rat Brain Synaptosomes
Using this method the ability of drugs to inhibit the accumulation of ^3H-5-HT into whole rat brain synaptosomes is determined in vitro.

Consider `Fc1ccc([C@@H]2CCNC[C@H]2COc2ccc3c(c2)OCO3)cc1` [Paroxetine, reference compound], for which the IC50 (in general, the concentration that gives 50% inhibition) was 0.29 nM.

The record behind these values is patent US6727263B2, “Indole and 2,3-dihydroindole derivatives, their preparation and use” (H. Lundbeck A/S, priority 1997, dated 2004).
